Measured values from patent US20060069032A1, “Beta-endorphin activity in cosmetics and dermatology” (L'OREAL, priority 2003, published 2006).

Protein sequences, listed by entry. Tags and fused reporters are not part of them.
UniProt P35372, whole entry: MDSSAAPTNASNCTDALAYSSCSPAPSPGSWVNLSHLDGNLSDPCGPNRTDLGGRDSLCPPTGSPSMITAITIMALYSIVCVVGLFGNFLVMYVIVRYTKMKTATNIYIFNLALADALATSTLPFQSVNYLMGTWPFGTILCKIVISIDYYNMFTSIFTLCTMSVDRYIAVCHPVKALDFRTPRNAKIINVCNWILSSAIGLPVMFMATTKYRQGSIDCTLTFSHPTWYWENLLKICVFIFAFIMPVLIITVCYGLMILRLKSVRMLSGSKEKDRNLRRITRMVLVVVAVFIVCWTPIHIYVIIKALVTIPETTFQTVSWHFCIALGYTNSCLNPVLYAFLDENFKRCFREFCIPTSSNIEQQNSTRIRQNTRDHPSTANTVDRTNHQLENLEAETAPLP
UniProt P41143, whole entry: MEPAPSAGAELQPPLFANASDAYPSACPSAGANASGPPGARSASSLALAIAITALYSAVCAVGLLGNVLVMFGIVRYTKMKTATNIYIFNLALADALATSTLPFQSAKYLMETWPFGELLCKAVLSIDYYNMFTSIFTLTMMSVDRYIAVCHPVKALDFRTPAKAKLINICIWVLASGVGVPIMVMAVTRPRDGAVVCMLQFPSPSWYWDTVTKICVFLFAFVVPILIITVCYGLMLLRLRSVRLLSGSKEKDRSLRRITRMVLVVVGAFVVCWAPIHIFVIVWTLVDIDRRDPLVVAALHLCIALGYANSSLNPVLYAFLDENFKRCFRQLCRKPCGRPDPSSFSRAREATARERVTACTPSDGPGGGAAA

Assays:
mu receptors = mu receptors (Homo sapiens, UniProt P35372); details: cited from earlier work
delta receptors = delta receptors (Homo sapiens, UniProt P41143); details: cited from earlier work
[1] = system: Transglutaminase 1 (TGK) messenger; experiment: Transglutaminase I (TGK) messenger expression by quantitative RT-PCR in reconstructed epidermis SkinEthic; assay type: cell-based, human; details: 0.01 μM, 24 hours
Procedure: The study was carried out on a model of reconstructed epidermis SkinEthic. Upon receiving, the epidermes were precultured for 24 hours in SkinEthic medium. The culture medium was then replaced with medium containing the test product (two epidermes per concentration tested), and then the epidermes were cultured for 24 hours at 37° C. and 5% CO2. A batch of 2 epidermes was not treated. The culture supernatants were then removed and the epidermes were rinsed with a PBS solution, cut and deposited in sterile RNA-free tubes in the presence of Tri-Reagent (Sigma T9424) and then immediately frozen at −80° C. […]
The reverse transcription was carried out in the following manner: • extraction of the total RNA of each epidermis with the aid of Tri-Reagent according to the protocol recommended by the supplier, and then a new extraction with chloroform and precipitation with isopropanol. • removal of the traces of potentially contaminating DNA by treating with the DNA-free system (Ambion) • carrying out of the reaction of reverse transcription of the mRNA in the presence of the oligo(dT) primer and of the enzyme Superscript II (Gibco) • quantification, by fluorescence, of the synthesized cDNA and adjustment of the concentrations of 50 ng/ml. […]
The incorporation of fluorescence into the amplified DNA was measured continuously during the PCR cycles. […]

Which “affinity for the mu receptors” value (mu receptors) does the source give for β-Endorphin [Beta-endorphin] here?
The value was “high affinity”.

What about the “affinity for the delta receptors” value (delta receptors) of the same substance?
The value was “high affinity”.

What about the TGK/actin [1] of the same substance?
Its TGK/actin is 0.149.
